This is an account of results in PubChem BioAssay AID651718 (The Scripps Research Institute Molecular Screening Center, 2012).

Only a part is listed here, and it is no random draw. Some of these compounds have results that are not shown, active ones among them. The source made the active and inactive calls. Rule as the data show it: active = inhibition above about 4.5%; inactive = the rest.

The assay relates to Methionine sulfoxide reductase A (Bos taurus). Put plainly: inhibition of methionine sulfoxide reductase A – biochemical, absorbance, bovine, HTS, primary screen (AID 651718).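 Also: 0% = vehicle wells with enzyme and 100% = reference inhibitor wells.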 The following applies: purified bovine MsrA, absorbance read-out; at 15.5 µM; hits give high values.
For `C=C(C)C#CC(O)(C(=O)OC1CCN(C)CC1)c1ccccc1` (stereo unspecified), the inhibition was inactive: 0.04%.
Take `COc1ccc(Br)c(C(=O)NCC2(N3CCCCC3)CCCCC2)c1`: the inhibition is inactive: 0.75%.
Turning to `CC(C)Oc1ccc(C(=O)NCC2(N(C)C)CCCCC2)cc1`, the inhibition is inactive: 0.44%.
In the case of `O=C(OCCN1CCCC1)C(O)(c1ccccc1)c1ccccc1`, the inhibition was inactive: -0.04%.
For `CN(C)c1cccc(C(=O)NCC2(N(C)C)CCCCC2)c1`, the inhibition was inactive: 0.78%.
Turning to `O=C(OC1CN2CCC1CC2)C(CO)(c1ccccc1)c1ccccc1` (stereo unspecified), the inhibition is inactive: -0.44%.
In the case of `COc1cccc(C(=O)NCC2(N3CCCCC3)CCCCC2)c1` it was inactive: 0.24%.
With `COc1ccc(Cl)cc1C(=O)NCC1(N(C)C)CCCCC1`, the inhibition was inactive: 0.73%.
Take `O=C(NCC1(N2CCCCC2)CCCCC1)c1cccc(Cl)c1`: the inhibition was inactive: 1.17%.
With `CN(C)C1(CNC(=O)c2ccc(Br)cc2)CCCCC1`, the inhibition is inactive: 0.49%.
Consider `COc1cc(C(=O)NCC2(N(C)C)CCCCC2)c([N+](=O)[O-])cc1OC`, for which the inhibition is inactive: 2.01%.
For `C=CCN1CCN(CCOC(=O)C(O)(c2ccccc2)c2ccccc2)CC1`, the inhibition was inactive: -0.45%.
For the molecule `O=C(NCC1(N2CCCCC2)CCCCC1)c1cc(F)c(F)cc1Cl`, the inhibition was inactive: -0.96%.
As for `COc1ccc(C(=O)NCC2(N(C)C)CCCCC2)cc1`, the inhibition is inactive: -1.38%.
For the molecule `Cc1cc(C(=O)NCC2(N3CCCCC3)CCCCC2)ccc1[N+](=O)[O-]`, the inhibition was inactive: -1.16%.
In the case of `CCN1CCCC(OC(=O)C2(O)c3ccccc3C=Cc3ccccc32)C1` (stereo unspecified), the inhibition is inactive: -0.22%.
Then `O=C(NCC1(N2CCCCC2)CCCCC1)c1cccc(Br)c1`, with inactive: -0.93%; and `Cc1ccccc1C(=O)NCC1(N2CCCCC2)CCCCC1`, with inactive: -1.1%; and `CN(C)C1CCCC1OC(=O)C(O)(c1ccccc1)c1ccccc1` (stereo unspecified), with inactive: 0.29%.
In the case of `CN(C)c1ccc(C(=O)NCC2(N(C)C)CCCCC2)cc1`, the inhibition was inactive: 1.51%.
Take `CCN(CC)CC(C)C(C)OC(=O)C(O)(c1ccccc1)c1ccccc1` (stereo unspecified): the inhibition was inactive: -0.77%.
With `COc1cc(SC)ccc1C(=O)NCC1(N(C)C)CCCCC1`, the inhibition was inactive: 0.55%.
For the molecule `CC(C)N1C(=O)CC2(CCN(CCOC(=O)C(O)(c3ccccc3)c3ccccc3)CC2)C1=O`, the inhibition is inactive: 1.81%.
For `Cc1ccc(C(=O)NCC2(N3CCCCC3)CCCCC2)cc1`, the inhibition is inactive: -0.61%.
For `O=C(NCC1(N2CCCCC2)CCCCC1)c1cc([N+](=O)[O-])ccc1Cl`, the inhibition was inactive: -1.37%.
Consider `CN1[C@@H]2CC[C@H]1CC(OC(=O)C(O)(c1ccccc1)c1ccccc1)C2` (stereo partly specified), for which the inhibition was inactive: -1.89%.
